Experimental data from publication PMC6207684, “Structural reorganization of SHP2 by oncogenic mutations and implications for oncoprotein resistance to allosteric inhibition” (Nature Communications, 2018).

Target: T1, SHP2^E76K (Homo sapiens, UniProt Q06124, E76K)
T1 construct: made in house
Test: SHP099 inhibition of DiFMUP dephosphorylation by purified SHP2
Type: biochemical
Conditions: SHP2^E76K versus SHP2

- Reduction of inhibitory potency of SHP099 for SHP2 by the E76K mutation: more than 100 fold
SMILES: CC1(N)CCN(c2cnc(-c3cccc(Cl)c3Cl)c(N)n2)CC1 [SHP099]
